Measured values: patent US20130040933A1, “AZAINDOLES AS JANUS KINASE INHIBITORS” (priority 2010, published 2013)

The chains behind the UniProt entries cited, without tags or fusion partners. Residues count along the entry.
UniProt P52333, 822-1111 limits assumed: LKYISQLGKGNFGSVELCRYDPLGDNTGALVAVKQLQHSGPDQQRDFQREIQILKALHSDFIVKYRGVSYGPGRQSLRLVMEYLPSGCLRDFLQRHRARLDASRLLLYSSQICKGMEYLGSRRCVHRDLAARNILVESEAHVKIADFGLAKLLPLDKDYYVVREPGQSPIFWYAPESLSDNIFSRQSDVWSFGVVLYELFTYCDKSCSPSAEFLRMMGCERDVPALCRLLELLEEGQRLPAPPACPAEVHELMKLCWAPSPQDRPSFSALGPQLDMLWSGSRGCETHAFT

Molecular target: rhJAK3 (Homo sapiens, UniProt P52333)
Assay: JAK Biochemical HTRF Assay (JAK3)
Conditions: read-out: rhJAK3 IC50; recombinant purified GST-tagged catalytic domain, HTRF format, [ATP] 1.7 μM
Method: JAK Biochemical HTRF Assay Protocol
The ability of compounds to inhibit the activity of JAK1, JAK2, JAK3, and TYK2 was measured using a recombinant purified GST-tagged catalytic domain for each enzyme (Invitrogen JAK1 #PV4774, JAK2 #PV4210, JAK3 #PV3855, TYK2 #PV4790) in an HTRF format biochemical assay. The reactions employed a common peptide substrate, LCB-EQEDEPEGDYFEWLW-NH2. The basic assay protocol is as follows: First, […] of diluted compounds in DMSO were dispensed into the wells of a dry 384-well Black plate (Greiner #781076) using a Labcyte Echo 555 acoustic dispenser. Subsequent reagent additions employed a Thermo Multidrop Combi nL. Next, 10 μL of 2× enzyme and 2× substrate in 1× assay buffer (Invitrogen kinase buffer #PV3189, 2 mM DTT, 0.05% BSA) were added to the wells and preincubated for 30 min at room temperature to allow compound binding to equilibrate. After equilibration, 10 μl, of 2×ATP in 1× assay buffer was added to initiate the kinase reaction and the plates were incubated at room temperature for 120 min. […] Plates were further incubated 60 min at room temperature with shaking and then read on a Perkin Elmer Envision (λex=337 nm, λem=665 and 615 nm, TRF delay time=20 μs). HTRF signal=10,000*665 nm reading/615 nm reading. After normalization to untreated controls, the percent inhibition of the HTRF signal at each compound concentration was calculated. […]

An IC50 of 100 to 1000 nM was found for `CC(C)[C@@H](Nc1cncc(-c2c[nH]c3ncc(C(=O)O)cc23)n1)C(=O)NCC(F)(F)F` in this work.
